Reference: US4593036A, “(-)-Trans-4-(4-fluorophenyl)-3-[(4-methoxyphenoxy)meth yl]-1-methylpiperidine useful as 5-HT potentiator” (priority 1984, dated 1986)

Tested on: 5-HT uptake
Experiment: Test 173: potentiation of 5-HTP (5-hydroxytryptophane) induced hypermotility in mice (inhibition of 5HT uptake, or 5HT potentiation, test)
Assay type: in vivo, mice (female, NMRI strain)
Details: Mus musculus, sc, read-out: Test 173 (dose increasing the activity to double the activity found with controls receiving 5-HTP alone; ED50), s.c., 5-HTP 150 mg/kg i.p., motility 45-75 min after 5-HTP, water-soluble salt
Text: I. POTENTIATION OF 5-HTP (5-HYDROXYTRYPTOPHANE) INDUCED HYPERMOTILITY IN MICE
This behavior is characterized by continuous jerky locomotion, head movements from side to side, abduction of the hind limbs, tremor, and lordosis.
Therefore, increased 5-HT in brain seems to be necessary for development of the abnormal behavior, but catecholamine release is probably not related to hyperactivity.
Measurement of the motility after administration of test drugs to 5-HTP-pretreated mice is therefore used as a test for 5-HT-potentiation, which most probably proceeds through an inhibition of 5-HT uptake.
Female mice of the NMRI strain weighing 20-22 g are used. The controls receive 5-HTP 150 mg/kg (15 ml/kg) i.p. (i.p.=intraperitoneally) and thirty (30) minutes later physiological saline (20 ml/kg) s.c. (s.c.=subcutaneously). The motility is measured by an Animex™ motimeter 45-75 minutes after 5-HTP administration. The test animals received test substance s.c. (20 ml/kg) instead of physiological saline. Five groups of two (2) mice are used for control and per dose of each test drug. the test substance is dosed according to the dose scale 1, 1.6, 2.5, 4, 6.3, and 10 mg/kg etc. The highest dose tested is about ten (10) percent of LD50.
The activity of the test animals is compared to the activity of controls. […]

## Fc1ccc([C@@H]2CCNC[C@H]2COc2ccc3c(c2)OCO3)cc1 (single isomer, unassigned) [FG 7051, reference compound]
  ED50: 1.7 mg/kg
